## Yeast mating assay 2: variants of the scFv Ab-95

Target: peptide PDVDLGDISGINAS, taken from heptad repeat 2 (HR2) of SARS-CoV-2 spike.

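The parent was found by panning a naive human phage display library on the peptide. In library AAYL52, one, two or three CDR residues were substituted; doubles and triples were drawn at random. Affinity was read by AlphaSeq, a pooled yeast mating assay with surface-displayed partners. The frequency of each diploid, read from paired DNA barcodes, reflects how well the two displayed proteins bind. Read counts were normalised to the haploid input and turned into Kd by a linear fit to BCL2-family pairs of known affinity, for each replicate. There are three technical replicates.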

Parent: Ab-95, a human scFv built as VH, a (GGGGS)3 linker, VL. Only the CDRs of the light chain vary.
VH: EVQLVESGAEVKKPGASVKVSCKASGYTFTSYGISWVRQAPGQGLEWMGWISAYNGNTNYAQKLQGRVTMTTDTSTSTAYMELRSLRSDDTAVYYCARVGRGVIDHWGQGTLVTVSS
VL: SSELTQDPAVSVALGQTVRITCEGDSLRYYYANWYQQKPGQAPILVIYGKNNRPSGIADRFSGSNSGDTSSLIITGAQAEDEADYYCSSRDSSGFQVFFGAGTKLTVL

The parent's light chain CDRs are EGDSLRYYYAN, GKNNRPS, SSRDSSGFQVF; each variant's own CDRs replace them letter for letter. This list gathers variants with a substitution at D25 (VL, numbered from residue 1). Scale: log10 of Kd in nM, estimated from mating counts; low values are strong binders. A mean of the replicates is given; it leaves out those without a signal. "nd" marks a missing value. The strain was present, yet no cells mated with the target were sequenced in that replicate, which points to weak or no binding. Parent in this assay: reference entry 2.31, copy in this library 2.25.

CDR-L1	CDR-L2	CDR-L3	log10 Kd (nM) by replicate	mean, log10 nM
EGIWLRYYYAN	GKNNRPS	SSRDSSFFQVF	nd nd nd	nd
EHWSLRYYYAN	GINNRPS	SSRDSSGFQVF	nd 4.32 3.73	4.03
EGWSLTYYYAN	GKNNRPS	SSRDFSGFQVF	4.53 nd nd	4.53
EFRSLRYYYAN	GKNNRPS	SSRDSSVFQVF	nd 4.69 3.58	4.14
EGFRLRYYYAN	GKNNRPS	SSRDSSGVQVF	3.39 nd nd	3.39
EGFSVRYYYAN	GKNNRPS	SSRDMSGFQVF	3.75 3.58 2.91	3.41
EGGSLRYYYAN	GKNNTPS	SSRDSSGFQVN	3.56 3.37 2.42	3.12
EGISLRYYYAN	GKNNGPS	SSRDSSGFQQF	nd nd nd	nd
EGLSLRYYYAN	GKNNRPS	SSRDSSEFRVF	nd nd nd	nd
EGHILRYYYAN	GKNNRPS	SSRDLSGFQVF	nd nd nd	nd
EGISLRYYYAN	GKNNRPS	SSRDWSGFQVF	3.84 3.25 nd	3.54
EGNSLRYYYYN	FKNNRPS	SSRDSSGFQVF	nd 4.55 nd	4.55
EGHSLRYYYDN	GKNNRPS	SSRDSSGFQVF	3.04 5.41 4.25	4.23
HGISLRYIYAN	GKNNRPS	SSRDSSGFQVF	2.67 3.36 2.56	2.86
EGGSLRYYYAN	GKNNRPS	CSRNSSGFQVF	nd nd 3.91	3.91
EGASLRYYYAN	GKNNRPS	HSRDSSGFIVF	3.82 5.52 nd	4.67
EGLSLRYYYAN	GKNNRPS	SGRDSSGFQVF	2.78 2.57 2.17	2.51
EGISLRYYYAN	GKNNRDS	SSRSSSGFQVF	2.52 2.29 2.16	2.32
EGTSLRYYYAN	GKNNRPS	CSRDNSGFQVF	3.79 nd 2.20	3.00
EGMSLRYYYAN	GKENRPQ	SSRDSSGFQVF	3.00 2.75 2.47	2.74
EGQSLRYYYAN	GKNKRPS	SSRDSSGFQVF	3.44 2.93 2.89	3.09
EGTSLRYYYAN	VKNNRPS	SSRDSSGFQVF	nd nd 4.30	4.30
EGWSLRYYYAN	VKNNRPS	SSRDSSGFDVF	3.92 nd 3.62	3.77
EGMSPRYYYAN	GKNNRPS	SSRDSSGFQSF	nd 5.28 nd	5.28
EGYSLRWYYAN	GKNNRPS	SSRDSSGFQVK	4.08 nd 4.16	4.12
EGSSLRYYYAN	GGNNRPS	SSRDSSGFQVF	1.90 1.91 1.57	1.79
EGYSLRYYYAL	GKNNRPS	CSRDSSGFQVF	nd 4.28 nd	4.28
EGSSLRFYYAQ	GKNNRPS	SSRDSSGFQVF	4.88 4.05 nd	4.46
EGGSLRYYYAN	GKNNRPS	SSRDSSGCQLF	nd 3.95 2.77	3.36
EGASLRYYYAN	GKNNRPS	SSDDSYGFQVF	5.29 4.13 nd	4.71
CGGSLRYYYAN	GKNNRPS	SSRDTSGFQVF	3.53 3.20 2.77	3.17
EGCSLFYYYAN	GKNNRPS	SSRDSSGFQVF	3.70 nd nd	3.70
EGASLRSYYAN	GENNRPS	SSRDSSGFQVF	1.06 1.39 0.84	1.09
EAGSLRYYYRN	GKNNRPS	SSRDSSGFQVF	nd nd nd	nd
ETWSLRYYYAN	GKNNRPS	SSRDSSGFQVD	4.14 nd nd	4.14
EGISLRYYYAN	GKNNRPS	SLRDSSGFQVF	2.66 2.47 2.03	2.39
EGKSLRSYYAN	GKNIRPS	SSRDSSGFQVF	1.98 1.72 1.32	1.67
EGCSLRYVYAN	GKANRPS	SSRDSSGFQVF	2.30 2.71 3.00	2.67
EGFSLRFYYAN	GKNNRPS	SSRDSSGQQVF	nd 3.15 3.07	3.11

Picked from the list: the 6 lowest averages where every replicate gave a value.

{"CDR-L1": "EGASLRSYYAN", "CDR-L2": "GENNRPS", "CDR-L3": "SSRDSSGFQVF", "log10 Kd (nM) by replicate": "1.06 1.39 0.84", "mean, log10 nM": "1.09"}
{"CDR-L1": "EGKSLRSYYAN", "CDR-L2": "GKNIRPS", "CDR-L3": "SSRDSSGFQVF", "log10 Kd (nM) by replicate": "1.98 1.72 1.32", "mean, log10 nM": "1.67"}
{"CDR-L1": "EGSSLRYYYAN", "CDR-L2": "GGNNRPS", "CDR-L3": "SSRDSSGFQVF", "log10 Kd (nM) by replicate": "1.90 1.91 1.57", "mean, log10 nM": "1.79"}
{"CDR-L1": "EGISLRYYYAN", "CDR-L2": "GKNNRDS", "CDR-L3": "SSRSSSGFQVF", "log10 Kd (nM) by replicate": "2.52 2.29 2.16", "mean, log10 nM": "2.32"}
{"CDR-L1": "EGISLRYYYAN", "CDR-L2": "GKNNRPS", "CDR-L3": "SLRDSSGFQVF", "log10 Kd (nM) by replicate": "2.66 2.47 2.03", "mean, log10 nM": "2.39"}
{"CDR-L1": "EGLSLRYYYAN", "CDR-L2": "GKNNRPS", "CDR-L3": "SGRDSSGFQVF", "log10 Kd (nM) by replicate": "2.78 2.57 2.17", "mean, log10 nM": "2.51"}

As a blank, each scFv also met three strains without target: over library AAYL52, 28% of these pairings were detected, typically at 3.91 and seldom below 2.90.

Values reported by Engelhart et al. 2022, doi:10.1038/s41597-022-01779-4 (FLAb copy).